Assay [1] addresses HuDHFR (Homo sapiens, UniProt P00374). Nature of the assay: Human DHFR enzyme inhibition (NADPH oxidation at 340 nm). It counts as biochemical. The note with it: read-out: IC50 (nM) HuDHFR; triplicate, mean ± SD.
The subject of assay [2] is M. smegmatis (Overexpressing DHFR Strain 2). Put plainly: MIC against M. smegmatis overexpressing DHFR, strain 2.
In assay [3] the test system is M. smegmatis (Overexpressing DHFR Strain 1). Nature of the assay: MIC against M. smegmatis overexpressing DHFR, strain 1.
Assay [4] deals with M. smegmatis (parent strain).

By UniProt entry, the sequences of proteins in these tests, tags left out.
UniProt P00374, whole entry: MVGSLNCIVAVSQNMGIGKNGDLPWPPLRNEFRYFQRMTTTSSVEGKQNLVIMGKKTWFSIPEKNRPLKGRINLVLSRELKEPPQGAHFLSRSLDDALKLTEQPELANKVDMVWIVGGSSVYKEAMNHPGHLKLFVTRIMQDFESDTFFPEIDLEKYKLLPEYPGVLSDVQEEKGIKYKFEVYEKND

SMILES strings stand for the structures. Values after ≈ are worked out from the molar mass of the structure shown.

Regarding `CCc1nc(N)nc(N)c1C#CC(C)c1ccc(Nc2ccncc2)cc1OC` (centres unmarked), the IC50 in assay [1] was determined as 290 nM. For the same molecule, the “MIC (µg/mL) M. smegmatis (Overexpressing DHFR Strain 2)” value (from here on “MIC … (Overexpressing DHFR Strain 2)”) in assay [2] is given as 32 µg/mL (≈ 82.4 µM). In assay [3], the “MIC (µg/mL) M. smegmatis (Overexpressing DHFR Strain 1)” value (shortened to “MIC … (Overexpressing DHFR Strain 1)”) was found to be 32 µg/mL (≈ 82.4 µM). Further, the “MIC (µg/mL) M. smegmatis (parent strain)” value in assay [4] was determined as 4 µg/mL (≈ 10.3 µM).

For the molecule `CCc1nc(N)nc(N)c1C#CC(C)c1cc(OC)cc(-c2ccccn2)c1` (centres unmarked), the IC50 in assay [1] amounted to 2200 nM. Also, in assay [2], the “MIC … (Overexpressing DHFR Strain 2)” value was 64 µg/mL (≈ 171 µM). Further, in assay [3], the “MIC … (Overexpressing DHFR Strain 1)” value turned out to be 128 µg/mL (≈ 343 µM). In addition, the “MIC (µg/mL) M. smegmatis (parent strain)” value in assay [4] was 4 µg/mL (≈ 10.7 µM).

Consider `CCc1nc(N)nc(N)c1C#C[C@@H](C)c1cc2c(c(-c3ccncc3)c1)OCO2`, for which the “MIC … (Overexpressing DHFR Strain 2)” value in assay [2] was found to be 64 µg/mL (≈ 165 µM). The “MIC … (Overexpressing DHFR Strain 1)” value in assay [3] was 64 µg/mL (≈ 165 µM). For the same molecule, the “MIC (µg/mL) M. smegmatis (parent strain)” value in assay [4] amounted to 1 µg/mL (≈ 2.58 µM).

Take `CCc1nc(N)nc(N)c1C#CCc1ccc(-c2ccncc2)cc1`: the IC50 in assay [1] came to 1130 nM.

For the molecule `CCc1nc(N)nc(N)c1C#CC(C)c1cc(OC)c(-c2ccncc2)c(OC)c1` (centres unmarked), the IC50 in assay [1] came out at 215 nM.

For `CCc1nc(N)nc(N)c1C#C[C@H](C)c1cc(-c2cc(C)nc(C)c2)ccc1Cl`, the “MIC … (Overexpressing DHFR Strain 2)” value in assay [2] amounted to 32 µg/mL (≈ 78.8 µM). Besides, in assay [3], the “MIC … (Overexpressing DHFR Strain 1)” value was found to be 64 µg/mL (≈ 158 µM). Further, in assay [4], the “MIC (µg/mL) M. smegmatis (parent strain)” value was found to be 0.25 µg/mL (≈ 0.616 µM).

Regarding `CCc1nc(N)nc(N)c1C#CCc1ccc(-c2ccc(CN)cc2)cc1OC`, the IC50 in assay [1] turned out to be 284 nM.

For the molecule `CCc1nc(N)nc(N)c1C#CC(C)c1cc(N2CCNCC2)ccc1OC` (centres unmarked), the half-inhibitory concentration (IC50) in assay [1] is 395 nM.

For `CCc1nc(N)nc(N)c1C#CC(C)c1cc(-c2cc[nH]c(=O)c2)ccc1OC` (centres unmarked), the IC50 in assay [1] worked out at 625 nM.

As to `CCc1nc(N)nc(N)c1C#CC(C)c1cncc(-c2cncn2C)c1` (centres unmarked), in assay [1], the half-inhibitory concentration (IC50) stood at 704 nM.

Regarding `CCc1nc(N)nc(N)c1C#CC(C)c1ccc(-c2ccncc2)cc1Cl` (centres unmarked), in assay [1], the IC50 worked out at 106 nM.

Turning to `CCc1nc(N)nc(N)c1C#CC(C)c1cc2c(c(-c3ccncc3)c1)OCCO2` (centres unmarked), the IC50 in assay [1] was 290 nM. Also, in assay [2], the “MIC … (Overexpressing DHFR Strain 2)” value came to 32 µg/mL (≈ 79.7 µM). Moreover, the “MIC … (Overexpressing DHFR Strain 1)” value in assay [3] stood at 64 µg/mL (≈ 159 µM). For the same molecule, the “MIC (µg/mL) M. smegmatis (parent strain)” value in assay [4] amounted to 1 µg/mL (≈ 2.49 µM).

For `CCc1nc(N)nc(N)c1C#CC(C)c1cc(-c2cnccn2)ccc1OC` (centres unmarked), in assay [1], the IC50 was 233 nM. The “MIC … (Overexpressing DHFR Strain 2)” value in assay [2] is recorded as 4 µg/mL (≈ 10.7 µM). For the same molecule, the “MIC … (Overexpressing DHFR Strain 1)” value in assay [3] was 4 µg/mL (≈ 10.7 µM). Also, in assay [4], the “MIC (µg/mL) M. smegmatis (parent strain)” value is given as 4 µg/mL (≈ 10.7 µM).

Consider `CCc1nc(N)nc(N)c1C#C[C@H](C)c1cc(-c2cc(C)nc(C)c2)ccc1OC(F)(F)F`, for which the IC50 in assay [1] came out at 168 nM. The “MIC … (Overexpressing DHFR Strain 2)” value in assay [2] was 64 µg/mL (≈ 141 µM). Further, the “MIC … (Overexpressing DHFR Strain 1)” value in assay [3] came out at 128 µg/mL (≈ 281 µM). Also, in assay [4], the “MIC (µg/mL) M. smegmatis (parent strain)” value was found to be 0.5 µg/mL (≈ 1.1 µM).

For the molecule `CCc1nc(N)nc(N)c1C#CC(C)c1cc(N2CCOCC2)ccc1OC` (centres unmarked), the IC50 in assay [1] came out at 229 nM.

Turning to `CCc1nc(N)nc(N)c1C#CC(C)c1cc2c(c(-c3ccnc(Cl)c3)c1)OCO2` (centres unmarked), the IC50 in assay [1] worked out at 254 nM.

The term IC50 denotes the concentration that gives 50% inhibition.

Source of the values: PMC5006990 (PLoS ONE, 2016).
